EP3928779A1 (Chugai Seiyaku Kabushiki Kaisha, priority 2014, dated 2016)

By UniProt entry, the sequences of proteins in these tests, tags left out.
UniProt O95436, whole entry: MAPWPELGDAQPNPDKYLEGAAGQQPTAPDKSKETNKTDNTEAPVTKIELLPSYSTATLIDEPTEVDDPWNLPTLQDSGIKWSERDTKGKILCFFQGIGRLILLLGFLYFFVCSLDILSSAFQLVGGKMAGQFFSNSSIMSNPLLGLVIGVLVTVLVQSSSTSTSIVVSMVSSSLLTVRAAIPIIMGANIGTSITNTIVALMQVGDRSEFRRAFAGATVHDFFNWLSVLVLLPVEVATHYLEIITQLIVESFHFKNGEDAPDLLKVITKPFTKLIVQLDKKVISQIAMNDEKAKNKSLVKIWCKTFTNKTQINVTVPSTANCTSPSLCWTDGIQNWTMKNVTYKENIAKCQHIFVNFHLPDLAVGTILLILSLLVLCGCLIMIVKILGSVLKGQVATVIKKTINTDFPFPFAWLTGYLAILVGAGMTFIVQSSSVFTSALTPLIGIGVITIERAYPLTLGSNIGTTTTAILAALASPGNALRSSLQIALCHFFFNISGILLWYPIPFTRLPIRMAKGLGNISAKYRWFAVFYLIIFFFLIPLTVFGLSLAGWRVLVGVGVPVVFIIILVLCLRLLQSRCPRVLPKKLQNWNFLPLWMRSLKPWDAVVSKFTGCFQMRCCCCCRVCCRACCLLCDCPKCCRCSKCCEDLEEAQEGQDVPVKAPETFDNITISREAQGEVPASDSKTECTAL

Key:
human NaPi-IIb = human NaPi-IIb (Homo sapiens, UniProt O95436); assay: Inhibitory effect on 33PO4 uptake into human NaPi-IIb-expressing cell (CHO); assay type: cell-based; settings: 33PO4 uptake into human NaPi-IIb-expressing CHO cells; compound at 1, 3, 10 or 30 µM
[1] = tested on: rat small-intestinal brush border membrane vesicles; assay: Inhibitory effect on 33PO4 uptake into rat small-intestinal brush border membrane vesicles (rapid filtration method); assay type: biochemical; settings: 33PO4 uptake into rat small-intestinal BBMVs; test compound 1 µM; reacted for 60 seconds

Row | Structure (SMILES) | IC50 (human NaPi-IIb) | Rate of uptake inhibition (%) (1 µM) [1]
1 | C[C@]12CCCN1N(Cc1ccccc1)C(=O)C(C(=O)Nc1ccc(C(F)(F)F)cc1-c1ccc(C(F)(F)F)nc1)=C2O | 5.1 µM | 76%
2 | C[C@]12CCCN1N(Cc1cc(F)c(F)cc1F)C(=O)C(C(=O)Nc1ccc(C(F)(F)F)cc1-c1ccc(C(F)(F)F)nc1)=C2O | 1.5 µM | 73%
3 | C[C@]12CCCN1N(Cc1cccc(C#N)c1)C(=O)C(C(=O)Nc1ccc(C(F)(F)F)cc1-c1ccc(C(F)(F)F)nc1)=C2O | 3.7 µM | 82%
4 | C[C@]12CCCN1N(Cc1c(F)cc(C#CCCCCOCC(O)CO)cc1F)C(=O)C(C(=O)Nc1ccc(C(F)(F)F)cc1-c1ccc(C(F)(F)F)nc1)=C2O (single isomer, unassigned) | 2.1 µM | 72%
5 | C[C@]12CCCN1N(Cc1ccc(F)cc1F)C(=O)C(C(=O)Nc1ccc(C(F)(F)F)cc1-c1cc(C(F)(F)F)ncn1)=C2O | 5.6 µM | 80%
6 | C[C@]12CCCN1N(Cc1ccc(C#N)cc1)C(=O)C(C(=O)Nc1ccc(C(F)(F)F)cc1-c1ccc(C(F)(F)F)nc1)=C2O | 5.7 µM | 77%
7 | C[C@]12CCCN1N(Cc1ccccc1C#N)C(=O)C(C(=O)Nc1ccc(C(F)(F)F)cc1-c1ccc(C(F)(F)F)nc1)=C2O | – | 71%
8 | C[C@]12CCCN1N(Cc1cc(F)ccc1F)C(=O)C(C(=O)Nc1ccc(C(F)(F)F)cc1-c1cc(C(F)(F)F)ncn1)=C2O | 4.2 µM | 79%
9 | CC(C)[C@H]1C(O)=C(C(=O)Nc2ccc(C(F)(F)F)cc2-c2cc(C(F)(F)F)ncn2)C(=O)N(Cc2ccc(OCCN3CCOCC3)c(F)c2F)N1C | 18.7 µM | 53%
